{
  "source": "patent US20200404921A1",
  "about": "“SOIL TREATMENT WITH METAM SALTS AND ONE OR MORE OF CALCIUM THIOSULFATE, CALCIUM CHLORIDE AND CALCIUM NITRATE” (Tessenderlo Kerley, Inc., priority 2018, published 2020)",
  "settings": "[…], or 0.2% to 0.5%",
  "data": [
    {"smiles": "[K+].[OH-]", "note": "[KOH, Potassium hydroxide]", "values": [
      {"measurement": "KOH concentration that prevents precipitation of diluted calcium thiosulfate, calcium chloride and/or calcium nitrate solutions in water", "result": "less than 1 % by weight"}
    ]}
  ]
}
